In patent US20260382583A1, “LPA1 ANTAGONISTS FOR TREATING INTERSTITIAL LUNG DISEASE” (published 2026):

Columns and labels:
[1] = test system: participants with IPF; experiment: Phase 2 IPF cohort: efficacy (FVC, ppFVC), 26 weeks
Procedure: A total of 278 participants with IPF were randomized and 276 participants were treated as of […] analyses data cut-off (4 Aug. 2022). Male and female participants ≥40 years of age with IPF and percent predicted forced vital capacity (ppFVC) >40% and percent predicted DLCO (ppDLCO) >25%; diagnosed within 7 years of screening; having a centrally-read chest HRCT obtained at screening that was consistent with UIP or probable UIP, or having a lung biopsy consistent with UIP were eligible to enter the study. The mean baseline ppFVC for all subjects was 76.5%. In the primary IPF cohort, participants were randomized (1:1:1) to receive 30 mg or 60 mg Compound A or placebo (PBO) twice daily for 26 weeks. Participants were stratified by standard of care (SoC) IPF therapy (pirfenidone versus nintedanib versus none) and region (Japan versus Rest of World) at randomization.
The primary objective of the study was to determine the rate of change in ppFVC from baseline to Week 26. The primary objective was evaluated with a two estimand framework to handle the intercurrent event of dose reduction to 10 mg BID or matching PBO when pre-specified low BP criteria is met. The primary estimand is adopted to estimate treatment effect when dose reduction is implemented. The supplementary estimand is adopted to estimate the effect of treatment without dose reduction.
Analysis Strategy: The primary estimand was to evaluate the efficacy of Compound A at 30 mg or 60 mg twice daily, compared to PBO in IPF participants who met the enrollment criteria, with or without use of SoC. The rate of decline in ppFVC (%) from baseline to Week 26 was compared using the difference between each dose and PBO as a population level summary regardless of dose reduction or treatment discontinuation for any reason (treatment policy strategy).
Analysis Strategy: The supplementary estimand for the primary objective is to evaluate the efficacy of Compound A at 30 mg or 60 mg twice daily without dose reduction, compared to the PBO in IPF subjects who met the enrollment criteria, with or without use of SoC. […]

[2] = test system: participants with PPF; experiment: Phase 2 PPF cohort: efficacy (FVC, ppFVC), 26 weeks
Procedure: A total of 123 participants with PPF were randomized. Participants (age ≥21 years) were randomized (1:1:1) to receive 30 mg or 60 mg Compound A or PBO twice daily for 26 weeks. […] Immunosuppressive medications (mycophenolate mofetil, mycophenolic acid, azathioprine and/or tacrolimus) were permitted only if dosing is stable for ≥6 months prior to screening. If receiving antifibrotic agents pirfenidone or nintedanib, patients had to receive a stable dosage for ≥3 months prior to screening and during the screening period; if not receiving pirfenidone or nintedanib, patients had to be naive to both drugs or not have received either 4 weeks prior to Day 1. A total of 47 (38.2%) subjects were receiving antifibrotic treatment (with or without immunosuppression therapy). Of those subjects, 34 were being treated with nintedanib and 13 with pirfenidone. Participants were stratified by usual interstitial pneumonia (UIP) pattern (presence versus absence) and background therapy (antifibrotics+/−ILD-targeted immunosuppression versus ILD-targeted immunosuppression alone versus none).UIP pattern was present in 52% of subjects and unclassifiable ILD was the most common disease categorization.
The study was not powered to detect statistical significance (no formal testing). No target effect size was defined in the study design. There were two estimand approaches for analysis:
Treatment Policy: Effect of treatment with dose reduction as part of treatment regimen.
While-On Treatment: Effect of treatment without dose reduction.
The main efficacy endpoint, rate of FVC decline (in % of predicted) from baseline to wk-26 in the PPF cohort, was estimated using a linear mixed-effects model utilizing all FVC timepoints. It was analyzed under a primary estimand (utilizing all data, treatment policy strategy), and under supplementary estimand (utilizing all data up to the point of dose reduction, while-on-treatment strategy). Analysis was performed in the overall population as well as in sub-groups by 1) background anti-fibrotic treatment or not 2) UIP radiographic pattern (presence or not). The mean baseline ppFVC was 66.7% for the PPF cohort.

[3] = 60 mg BID, not receiving antifibrotic, primary estimand
[4] = 60 mg BID, not receiving antifibrotic, supplementary estimand

Compound: CCCN(C)C(=O)OCc1c(-c2ccc(O[C@H]3CCC[C@H](C(=O)O)C3)c(C)n2)nnn1C
- Efficacy vs PBO ([1]; 30 mg BID, overall population, data not shown): did not demonstrate efficacy compared to PBO
- Treatment differences in rate of change in ppFVC with and without background antifibrotic ([1]; IPF cohort, FIGS. 11A and 11B): consistent between both groups
- Impact on FVC compared with PBO ([1]; alone or on background nintedanib or pirfenidone): favorable impact on FVC compared with PBO
- Mean observed change in ppFVC and FVC vs placebo ([2]; 30 mg BID, after week 20): more significant improvement after week 20
- Difference in rate of decline in FVC (% predicted) vs placebo ([2]; 30 mg BID, not receiving antifibrotic, primary estimand): 1.28%
- Rate of decline in FVC (% predicted), slope ([2]; 30 mg BID, not receiving antifibrotic, supplementary estimand): −2.83%
- Rate of decline in FVC (% predicted), slope ([2]; 30 mg BID, receiving antifibrotic, supplementary estimand): −1.8%
- Mean observed change in ppFVC and FVC vs placebo ([2]; 30 mg and 60 mg BID, week 8): both 30 mg and 60 mg show improvement over placebo at week 8
- Efficacy ([2]; 60 mg BID, 37% on background anti-fibrotics): Efficacy of Compound A (60 mg) was shown
- Relative reduction in rate of decline in FVC (% predicted) ([2]; 60 mg BID, UIP absent, primary estimand): Policy Strategy (Relative Reduction = 83.6%)
- Relative reduction in rate of decline in FVC (% predicted) ([2]; 60 mg BID, UIP absent, supplementary estimand): While on Treatment (Relative Reduction = 84.4%)
- Difference in rate of decline in FVC (% predicted) vs placebo [2, 3]: 2.85%
- Relative reduction in rate of decline in FVC (% predicted) [2, 3]: Estimand - Treatment Policy (Relative Reduction = 68.5%)
- Rate of decline in FVC (% predicted), slope [2, 4]: −1.56%
- Relative reduction in rate of decline in FVC (% predicted) [2, 4]: Estimand - While on Treatment (Relative Reduction = 62.6%)
- Relative reduction in rate of decline in FVC (% predicted) ([2]; 60 mg BID, receiving antifibrotic, primary estimand): Estimand - Treatment Policy (Relative Reduction = 85%)
- Relative reduction in rate of decline in FVC (% predicted) ([2]; 60 mg BID, receiving antifibrotic, supplementary estimand): Estimand - While on Treatment (Relative Reduction = 74.9%)
- Mean observed change in ppFVC and FVC vs placebo ([2]; 60 mg BID, through week 26): maintains the improvement over placebo through the end of week 26
- Treatment difference 60 mg v placebo, rate of decline in ppFVC ([2]; Anti-fibrotic subgroup, Week 26, N 15/15): 3.28%
- Treatment differences in rate of change in ppFVC by background antifibrotic use ([2]; FIGS. 11C and 11D): consistent with or without background antifibrotic use
- Treatment differences by UIP pattern ([2]; FIGS. 14-16): treatment differences were seen in the PPF cohort independent of UIP pattern presence or absence
- Treatment difference 60 mg v placebo, rate of decline in ppFVC ([2]; No antifibrotic subgroup, Week 26, N 27/26): 2.61%
- Treatment difference 60 mg v placebo, rate of decline in ppFVC ([2]; Non UIP subgroup, Week 26, N 21/20): 3.80%
- Dose response ([2]; PPF cohort): Clear dose response
- Treatment difference 60 mg v placebo, rate of decline in ppFVC ([2]; UIP subgroup, Week 26, N 21/21): 2.12%
- Efficacy in sub-groups ([2]; irrespective of background antifibrotics or UIP pattern): Efficacy consistent in all sub-groups
- Treatment difference 60 mg v placebo, rate of decline in ppFVC ([2]; overall, baseline to Week 26, N 42/41): 2.94%
